Patent US20090042292A1 (Johns Hopkins, published 2009)

Molecular target: T1, PD-1Ig (extracellular domain of mouse PD-1 linked to the Fc portion of mouse IgG2a) (mouse, UniProt Q02242 25-169)
T1 construct: extracellular domain; Produced in stably transfected CHO cells; used coated in the capture ELISA and immobilized on the CM5 chip in SPR; also called mPD-1; not shown: Fc portion of mouse IgG2a
T1 sequence (looked up): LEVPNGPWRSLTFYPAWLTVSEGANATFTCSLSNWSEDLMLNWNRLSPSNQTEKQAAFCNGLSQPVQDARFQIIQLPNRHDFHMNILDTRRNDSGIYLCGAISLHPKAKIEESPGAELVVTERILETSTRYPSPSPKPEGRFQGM
Assay: capture ELISA, PD-1Ig coated, COS supernatant, relative to wild type B7-DCIg

B1: mouse B7-DCIg variant D111S (Fc fusion)
chain: LFTVTAPKEVYTVDVGSSVSLECDFDRRECTELEGIRASLQKVENDTSLQSERATLLEEQLPLGKALFHIPSVQVRDSGQYRCLVICGAAWSYKYLTVKVKASYMRIDTRILEVPGTGEVQLTCQARGYPLAEVSWQNVSVPANTSHIRTPEGLYQVTSVLRLKPQPSRNFSCMFWNAHMKELTSAIIDPLSRMEPKVPRTW
notes: also called B7-DC variant D111; not shown: CH2-CH3 portion of human IgG1
PD-1 binding, ELISA (%): 0.3%
